miR-21 reporter: miR-21 reporter, rising signal; HeLa miR-21 FLuc reporter, luciferase, 48 h; Potency, µM (titrated, usually from 38.3 µM); 340,000 tested, under 10 active; AID 2288; active = well fitted rising curve with a large enough effect; inconclusive = small, poorly fitted or top-dose-only effect; inactive = no such curve, though single readings can be large or run the other way;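 also: miR-21 action dims this reporter so a rising signal means less miR-21 action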
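HeLa cells endogenously expressing miR-21, stably carrying CMV-driven firefly luciferase with a downstream miR-21 binding site, 2000 cells/well. Titrations up to approximately 40 uM, 48 hours; luciferase luminescence read.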
TrxR1 inh: inhibitors of rat thioredoxin reductase 1 | AID 588453 | 1% of 390,000 active | recombinant rTrxR1, NADPH fluorescence consumption, selenite substrate | Potency, µM (doses to about 114 µM), hits mostly inhibitors; note: nearly all actives have a fitted effect of over 65% in size
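Rat TrxR1 (90 nM in the dispensed reagent) was pre-reduced with 400 uM NADPH for 5 min at room temperature, then incubated with compound for 15 min. After 400 uM selenite was added, NADPH fluorescence (Ex 340/Em 450 nm) was followed for 8 min.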
TrxR1 substrate: rat thioredoxin reductase 1 substrate activity | O89049 | purified TrxR1 substrate turnover, NADPH consumption readout | AID 588456 | Potency, µM (series often up to 114 µM) | 0.01% of 390,000 active; note: nearly all actives have a fitted effect of over 50% in size
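Rat TrxR1, dispensed at 90 nM, was prereduced with 400 uM NADPH (final) for 5 min at ~22 deg C, then incubated with compound 15 min before 400 uM selenite. A first-read NADPH fluorescence drop versus no-compound background flagged substrates.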
Anesthetic bind: binds horse apoferritin like a general anesthetic | apoferritin/1-aminoanthracene competitive binding, fluorescence | 0.074% of 350,000 active | AID 485281 | Potency, µM (highest dose often 77.5 µM), usual class: inhibitors; note: nearly all actives have a fitted effect of over 20% in size
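Steps: apoferritin (10 uM) was premixed with half-saturated 1-AMA in PBS, compounds were pin-transferred, plates stood 10 min at room temperature, fluorescence was read at 380/535 nm, and curves were fitted with a Hill equation.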
ClpP mod: qHTS Assay for Activators of ClpP; AID 651965, 2013; ATP-dependent Clp protease proteolytic subunit (Bacillus subtilis (strain 168)), P80244; 1.9% of 340,000 active; Potency, µM (top dose mostly 57.5 µM); purified B. subtilis ClpP, FRET peptide cleavage, 20 min; active = well fitted falling curve with a large enough effect; inconclusive = small, poorly fitted or top-dose-only effect; inactive = no such curve, though single readings can be large or run the other way; note: the source files actives as falling curves though it sought activators and does not explain the sign; nearly all actives have a fitted effect of over 65% in size
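ClpP 10 microg/mL final, pH 8 Tris/KCl buffer with BSA, glycerol, Tween-20; compound pinned in; FRET-FV substrate; RT 20 min; Ex320/Em430; ΔFRET vs ADEP 5.8 microM, DMSO, no enzyme.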
ClpP validation: Bacillus subtilis ClpP inhibition, validated hit | purified B. subtilis ClpP, FRET-FV substrate cleavage, 20 min | 40% of 470 active | shares compounds with ClpP mod | Potency, µM (series often up to 57.5 µM), hits mostly inhibitors; note: nearly all actives have a fitted effect of over 70% in size
A number is an active result; - = inactive; ? = inconclusive; . = no result given; [ ] = another dose, or the depositor's remark. A selection: hits, their analogues and other compounds. The true share with any hit is near 2.5%. Unless noted, calls come from the whole dose curve; as a rule, active = well fitted curve in the direction sought with a large enough effect; inconclusive = small, poorly fitted or top-dose-only effect, or another doubt; inactive = no such curve, though single readings can be large; an effect the other way counts as inactive or inconclusive.

Sequences of proteins named here, by UniProt entry; tags and fusion partners are left off.
ATP-dependent Clp protease proteolytic subunit (Bacillus subtilis (strain 168)), P80244, UniProt P80244, whole entry, looked up: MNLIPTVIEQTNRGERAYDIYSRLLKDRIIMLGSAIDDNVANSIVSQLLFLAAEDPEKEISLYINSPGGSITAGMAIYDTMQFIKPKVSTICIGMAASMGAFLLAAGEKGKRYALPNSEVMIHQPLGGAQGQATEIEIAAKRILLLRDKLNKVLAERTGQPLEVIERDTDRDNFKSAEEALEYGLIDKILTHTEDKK

SMILES | miR-21 reporter | TrxR1 inh | TrxR1 substrate | Anesthetic bind | ClpP mod | ClpP validation
CCCN(C(=O)c1noc2c1COc1ccc(C)cc1-2)c1ccc(Cl)c(Cl)c1 | - | -[11.4 µM] | - | - | - | .
Brc1cccc(-c2nnn3c2nc(NCc2ccc4c(c2)OCO4)c2ccccc23)c1 | - | - | - | - | - | ?
CCCCNc1nc2c(-c3cccc(Br)c3)nnn2c2ccccc12 | - | - | - | - | - | .
COc1ccccc1NC(=O)Cn1c2ccccc2c2nc3n(c(=O)c21)CCS3 | - | - | - | - | 3.2µM | ?
O=C(Cn1c2ccccc2c2nc3n(c(=O)c21)CCS3)Nc1ccccc1C(F)(F)F | - | - | - | - | . | .
Cc1ccc(C2Nc3ccccc3-c3nc4ccccc4n32)o1 (stereo not drawn) | - | - | - | - | 0.71µM | 11µM
CCn1ccc2c(OCC(=O)Nc3ccc(OC)cc3OC)cccc2c1=O | - | - | - | - | - | .
CC(=O)NC1C(O)O[C@H](C(=O)O)[C@@H](O)[C@@H]1O (stereo partly drawn) | . | . | . | - | . | .
Cc1nnc(NC(=O)c2oc3c(ccc4ccccc43)c2C)s1 | - | - | - | - | 8.9µM | 31µM
Cc1nnc(NC(=O)c2oc3ccccc3c2C)s1 | - | - | - | - | - | .
CCc1c(CN2CCN(c3ccccc3F)CC2)csc1C | - | - | - | - | - | .
O=C(Nc1ccccc1)c1cc2c(-c3ccccc3)nn(-c3ccccc3)c2s1 | - | - | - | - | 7.1µM | 19µM
O=C(Nc1ccc(Cl)cc1)c1cc2c(-c3ccccc3)nn(-c3ccccc3)c2s1 | - | - | - | - | ? | .
CCn1c(C(=O)NCc2ccccc2OC)cc2sccc21 | - | - | - | - | - | .
Cc1cc(N2CCCCC2)nc2ccc(NC(=O)/C=C/c3ccccc3OC(C)C)cc12 | - | - | - | - | - | .
CC(=O)NCc1nc2cccnc2n1Cc1ccccc1 | - | - | - | - | - | .
CCC(=O)Nc1cc2nn(-c3ccc(C)cc3)nc2cc1C | - | - | - | - | - | .
CCCCC(=O)Nc1cc2nn(-c3ccc(OC)cc3)nc2cc1C | - | - | - | - | 1µM | 24µM
CCC(=O)Nc1cc2nn(-c3ccc(OC)cc3)nc2cc1C | - | - | - | - | 2.8µM | 19µM
COc1ccc(-n2nc3cc(C)c(NC(=S)NC(=O)c4ccccc4C)cc3n2)cc1 | - | ? | - | - | - | .
Cc1ccc(CN(Cc2cccn2-c2nnc(N3CCCC3=O)s2)C(=O)Nc2ccccc2Cl)cc1 | - | - | - | - | - | .
CN(C)c1ccc(CNC(=O)c2cnc3sc(N4CCOCC4)nn3c2=O)cc1 | - | - | - | - | - | .
CCc1cc2c(N3CCN(C(=O)c4ccco4)CC3)ncnc2s1 | - | - | - | - | 2.8µM | -
COc1ccc(C)cc1S(=O)(=O)NC1CCCCC1C (stereo not drawn) | - | - | - | - | - | -
COc1cc(OC)c2c(C)c(CC(=O)NCc3ccccc3OC)c(=O)oc2c1 | - | - | - | - | - | .
SMILES | miR-21 reporter | TrxR1 inh | TrxR1 substrate | Anesthetic bind | ClpP mod | ClpP validation
COc1cc2c(cc1OC)C(COc1ccc3c(C)cc(=O)oc3c1)N(C(=O)c1ccccc1F)CC2 (stereo not drawn) | - | - | - | ? | - | ?
COc1ccc2c(c1)c1c(c(=O)n(-c3ccc(F)c(Cl)c3)c(=O)n1Cc1ccccc1F)n2C | - | - | - | - | ? | .
Cc1ccc(NC(=O)Cn2c(=O)n(CCC(C)C)c(=O)c3cccnc32)cc1C | - | - | - | - | - | -
CCOc1ccc(N(C(=O)CNC(=O)c2ccco2)C(C(=O)NC2CCCC2)c2ccco2)cc1 (stereo not drawn) | - | - | - | - | 3.2µM | -
CCOc1ccc(N(C(=O)CNC(=O)c2ccco2)C(C(=O)NC2CCCC2)c2cccnc2)cc1 (stereo not drawn) | - | ? | - | - | . | .
COc1ccc(-c2coc3cc(OC(C)=O)c(OC)cc3c2=O)cc1 | . | - | - | . | - | -
COc1ccc(-c2coc3cc(OC(C)=O)cc(OC(C)=O)c3c2=O)cc1 | . | . | . | - | . | .
CCOC(=O)c1c(NC(=O)c2ccc(S(=O)(=O)N3CCC(C)CC3)cc2)sc2c1CCN(C)C2 | - | - | - | - | - | ?
COc1cc(NC(=O)CCc2c(C)nc3nc(-c4cc(OC)cc(OC)c4)nn3c2C)cc(OC)c1 | - | - | - | - | - | .
O=C(Nc1ccc2c(c1)Cc1ccccc1-2)c1ccncc1 | - | - | - | - | 10µM | -
COc1cccc(CN2C(=O)C3(SCC(=O)N3c3cc(C)cc(C)c3)c3ccccc32)c1 (stereo not drawn) | - | - | - | - | - | .
Cc1cccc(C)c1Nc1sc(C(=O)c2ccccc2)c(N)c1C(=O)Nc1ccc(F)cc1 | - | - | - | ? | - | .
COCC(=O)n1nc(-c2ccccc2)nc1NCc1ccccc1 | - | - | - | - | . | .
CCC(=O)n1nc(-c2ccccc2)nc1NCc1ccccc1 | - | - | - | - | - | -
CC(C)(C)OC(=O)N1CCC(c2c(C(=O)Nc3ccc4c(c3)OCCO4)cnn2-c2ccc(F)cc2F)CC1 | - | - | - | - | - | .
Cc1ccc(Nc2c(-c3c[nH]c4ccccc34)nc3ccccn23)cc1 | - | - | - | - | - | .
Cc1ccc(Nc2c(-c3ccc(Br)o3)nc3ccccn23)cc1 | - | ? | - | - | 8.9µM | ?
CCOc1ccc(NC(=O)CC2C(=O)N(c3ccc(Cl)cc3)C(=O)N2Cc2cccs2)cc1 (stereo not drawn) | - | - | - | - | - | .
c1ccc(Oc2cc(-n3cncn3)ncn2)cc1 | - | - | - | - | 2.8µM | -
Cc1ccnc(NC(=O)c2ccc(OCc3c(C)noc3C)cc2)c1 | . | - | - | . | - | -
CCN(Cc1ccccc1)S(=O)(=O)c1ccc(-c2coc(C)n2)cc1 | ? | - | - | - | - | .
Cc1nc2ccccn2c1C(=O)Nc1ccc2c(c1)OCCO2 | - | - | - | - | ? | -
Cc1cc(C)n2nc(NCc3ccccc3)nc2n1 | - | - | - | - | 10µM | 24µM
COc1ccc(-c2nn(C)c3sc(C(=O)N4CCN(c5cccc(Cl)c5)CC4)cc23)cc1OC | - | - | - | - | - | .
Nc1ccc(-c2nc3ccc(-c4nc5ccccc5o4)cc3[nH]2)cc1 | - | ? | - | - | - | .
Cc1nc2ccc(-c3nc4ccccc4o3)cc2[nH]1 | - | - | - | - | 3.2µM | 15µM
CCNc1nc(NCC)n2c(SCC(=O)Nc3ccc(OC)c(OC)c3)nnc2n1 | . | - | - | . | - | -
CC(=O)N1N=C(c2ccc(Br)cc2)OC12CCCC2 | - | - | - | - | - | .
CC(=O)N1N=C(c2ccncc2)OC12CCCC2 | - | - | - | - | 10µM | 24µM
